Experimental data: article PMC3274752 (Cancer discovery, 2011)

Tested on: NIH-3T3 cells expressing the L858R mutation in EGFR
Assay: Soft agar colony formation, NIH-3T3 expressing EGFR L858R

Cc1nc(Nc2ncc(C(=O)Nc3c(C)cccc3Cl)s2)cc(N2CCN(CCO)CC2)n1 [dasatinib]
colony formation in soft agar: inhibited the colony formation
